Columns and labels:
Type in all cases: functional
Escherichia coli = experiment: Antimicrobial activity against Escherichia coli KCTC 1682 assessed as minimal inhibitory concentration incubated for 18 hrs
Staphylococcus aureus = experiment: Antimicrobial activity against Staphylococcus aureus KCTC 1621 assessed as minimal inhibitory concentration incubated for 18 hrs
Pseudomonas aeruginosa = experiment: Antimicrobial activity against Pseudomonas aeruginosa KCTC 1637 assessed as minimal inhibitory concentration incubated for 18 hrs
[1] = test system: Staphylococcus epidermidis; experiment: Antimicrobial activity against Staphylococcus epidermidis KCTC 1917 assessed as minimal inhibitory concentration incubated for 18 hrs

Measured: MIC

CC[C@H](C)[C@H](NC(=O)CN)C(=O)NCC(=O)N[C@@H](C)C(=O)N[C@H](C(=O)N[C@@H](CC(C)C)C(=O)N[C@@H](CCCCN)C(=O)N[C@H](C(=O)N[C@@H](CC(C)C)C(=O)N[C@H](C(=O)N[C@H](C(=O)NCC(=O)N[C@@H](CC(C)C)C(=O)N1CCC[C@H]1C(=O)N[C@@H](C)C(=O)N[C@@H](CC(C)C)C(=O)N[C@H](C(=O)N[C@@H](CO)C(=O)N[C@@H](Cc1c[nH]c2ccccc12)C(=O)N[C@H](C(=O)N[C@@H](CCCCN)C(=O)N[C@@H](CCCNC(=N)N)C(=O)N[C@@H](CCCCN)C(=O)N[C@@H](CCCNC(=N)N)C(=O)N[C@@H](CCC(N)=O)C(=O)N[C@@H](CCC(N)=O)C(N)=O)[C@@H](C)CC)[C@@H](C)CC)[C@@H](C)O)[C@@H](C)O)C(C)C)C(C)C [MELITTIN]
16 µg/mL: all assays above

Source: ChEMBL document CHEMBL5120880, “Peptidomimetics: An Overview of Recent Medicinal Chemistry Efforts toward the Discovery of Novel Small Molecule Inhibitors” (J Med Chem, 2022)
